Yeast mating assay 1: variants of the scFv Ab-14

Reference: Engelhart et al. 2022, doi:10.1038/s41597-022-01779-4. File: FLAb, binding data.

Antigen: PDVDLGDISGINAS, a 14-residue peptide of the SARS-CoV-2 spike HR2 region.

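The parent was found by panning a naive human phage display library on the peptide. In library AAYL49, one, two or three CDR residues were substituted; doubles and triples were drawn at random. Affinity was read by AlphaSeq, a pooled yeast mating assay with surface-displayed partners. The frequency of each diploid, read from paired DNA barcodes, reflects how well the two displayed proteins bind. The ratio of observed to expected reads was calibrated, replicate by replicate, on BCL2-family standards whose Kd was known from biolayer interferometry. The assay was run in three technical replicates.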

The variants keep the light chain, the linker and the frameworks of Ab-14 (scFv order VH, the linker GGGGSGGGGSGGGGS, VL).
VH: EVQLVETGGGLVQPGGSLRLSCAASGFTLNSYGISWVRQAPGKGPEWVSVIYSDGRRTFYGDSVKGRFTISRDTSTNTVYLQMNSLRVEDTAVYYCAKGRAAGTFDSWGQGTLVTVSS
VL: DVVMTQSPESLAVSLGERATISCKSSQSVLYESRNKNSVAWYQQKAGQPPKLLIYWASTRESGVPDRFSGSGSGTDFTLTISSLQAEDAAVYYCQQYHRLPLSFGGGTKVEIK

Each variant is given by its three heavy chain CDRs, as the data file delimits them; those of the parent are GFTLNSYGIS, VIYSDGRRTFYGDSVK, GRAAGTFDS.
This list gathers variants with a substitution at T58 (VH, numbered from residue 1).
Affinities are written as log10 Kd with Kd in nM; a lower number is a better binder.
The mean shown is taken over the replicates in which the pair was detected.
"nd" means that the variant was in the library but no mating with the target was seen in any replicate; the authors take this as a sign of poor binding, and no number exists.

Variant GFTYNSYGIS | VIYSDGRRLFYGDSVK | GRAAGTFDE showed 3.92 (1 of 3 replicates). With GFTLNSYGIS | VIYSDGRRNFYGDSVN | LRAAGTFDS the result was nd (0 of 3 replicates). With GFTLNSYGIS | VIYSDGRRWFYGDSVK | GRAAGTFDS the result was nd (0 of 3 replicates). Variant GFILNSYGIS | VIYSVGRRMFYGDSVK | GRAAGTFDS gave 3.93 (2 of 3 replicates). Variant GFTENSYGIS | VIYSDGRRVFYGDHVK | GRAAGTFDS showed 5.84 (1 of 3 replicates). For GFTLNSYGIS | VIYSDGRRQFYGDSVK | MRAAGTFDS, the assay gave nd (0 of 3 replicates).

For GFHLNSYGIS | VIYSDWRRPFYGDSVK | GRAAGTFDS, the assay gave nd (0 of 3 replicates). With GFTLMSYGIS | VILSDGRRDFYGDSVK | GRAAGTFDS the result was 3.80 (2 of 3 replicates). Variant GFTINSYGCS | VIYSDGRRQFYGDSVK | GRAAGTFDS gave nd (0 of 3 replicates). Variant GFTLNSYGIS | VIYSDGVRPFYGDSVK | GRAANTFDS showed 4.39 (1 of 3 replicates). For GFTLNSYGIS | VIDSDGRRFFYGDSVK | GRAAGTPDS, the assay gave nd (0 of 3 replicates). With GFTLNSYGIS | VIYFDGRRCFYGDSVK | GRAAGTFDS the result was 3.25 (3 of 3 replicates).

Variant GFTLNSYGIS | VIYSDGRRQFYMDSVK | GRAAGTFDR gave 1.90 (3 of 3 replicates). Variant GFALNQYGIS | VIYSDGRRQFYGDSVK | GRAAGTFDS gave 0.81 (3 of 3 replicates). Variant GFTLNSEGIS | VIYSDGRRVFYGDSVK | GRAAGTFFS showed nd (0 of 3 replicates). Variant GFTLNSYGIS | IIYSDGRRVFYGDSVK | MRAAGTFDS gave 4.15 (2 of 3 replicates). For GFTLNSYYIS | VIYSDGRNSFYGDSVK | GRAAGTFDS, the assay gave nd (0 of 3 replicates). For GFHLNSYGIS | VILSDGRRKFYGDSVK | GRAAGTFDS, the assay gave 4.31 (2 of 3 replicates).

With GHILNSYGIS | VIYSDGRRNFYGDSVK | GRAAGTFDS the result was 2.48 (3 of 3 replicates). Variant GETLNSYGIS | VIYSDGRRYFYGDSVK | GRAAGTFVS showed 1.74 (1 of 3 replicates). Variant GFTLNSYGRS | VIYSDGRRRFYGDSVK | GRAAGTFDY showed nd (0 of 3 replicates). Variant GFDLNSYNIS | VIYSDGRRKFYGDSVK | GRAAGTFDS showed nd (0 of 3 replicates). Variant GFTLNSYGIS | VIYSDGRTEFYGHSVK | GRAAGTFDS showed 3.72 (2 of 3 replicates). For GFTLNSYGIS | VIYSDGRRAFYGDSVK | GRAEGTFDS, the assay gave 4.19 (1 of 3 replicates).

For GFTLNSYGIS | VIPSDGRRCFYGDSVK | GRAAGCFDS, the assay gave nd (0 of 3 replicates). Variant GFTLMSYGIS | VIYSDGRRCFYGDCVK | GRAAGTFDS gave nd (0 of 3 replicates). With GFTLNSYNIS | VIYSDGRRRFYGDSVK | GRAQGTFDS the result was nd (0 of 3 replicates). Variant GFTLNSYGMS | VIYSDGRRDFYGESVK | GRAAGTFDS gave nd (0 of 3 replicates). Variant GFTLNSYGIS | VIYSDGRRKFYGDSVK | GRAYGTFDS showed 5.97 (1 of 3 replicates). For GFTLNSYGIS | VCYTDGRREFYGDSVK | GRAAGTFDS, the assay gave nd (0 of 3 replicates).

Variant GFTLWSYGIS | VIYSDGRRHFYGDSVK | GYAAGTFDS gave 2.87 (1 of 3 replicates). With GFTLNSYGIS | VIYSDGRRPTYGDSVK | GRASGTFDS the result was nd (0 of 3 replicates). With GFTLNSYGIS | VIYSDGRRSFYGDSVK | GRWAGTFDS the result was 1.34 (3 of 3 replicates). For GFTLNSAGIS | VIYSDGRRNFPGDSVK | GRAAGTFDS, the assay gave 3.60 (1 of 3 replicates).

Top 4 of the variants detected in all replicates, tightest first:

| CDR-H1 | CDR-H2 | CDR-H3 | mean log10 Kd (nM) | replicates with signal |
|---|---|---|---|---|
| GFALNQYGIS | VIYSDGRRQFYGDSVK | GRAAGTFDS | 0.81 | 3 of 3 |
| GFTLNSYGIS | VIYSDGRRSFYGDSVK | GRWAGTFDS | 1.34 | 3 of 3 |
| GFTLNSYGIS | VIYSDGRRQFYMDSVK | GRAAGTFDR | 1.90 | 3 of 3 |
| GHILNSYGIS | VIYSDGRRNFYGDSVK | GRAAGTFDS | 2.48 | 3 of 3 |

For reference, the parent read 0.65 as the reference entry and 4.11 (one replicate of three) as a member of this library.
Three control strains display no target. For library AAYL49, 15% of the pairings with them gave a signal, with a median of 4.06 and one signal in twenty below 2.83, so weak values seen in few replicates may be background.